{
  "sequences": {"note": "By UniProt entry, the sequences of proteins in these tests, tags left out.", "UniProt P31941, whole entry": "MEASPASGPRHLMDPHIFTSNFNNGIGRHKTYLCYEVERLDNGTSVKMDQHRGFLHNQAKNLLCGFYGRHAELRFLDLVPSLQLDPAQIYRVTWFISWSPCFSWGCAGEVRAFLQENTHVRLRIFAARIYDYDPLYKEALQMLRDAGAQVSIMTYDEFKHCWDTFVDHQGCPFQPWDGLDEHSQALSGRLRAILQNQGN"},
  "source": "PubChem BioAssay AID493011",
  "about": "(Sanford-Burnham Center for Chemical Genomics, 2011)",
  "note": "Only a part is listed here, and it is no random draw. Some tests of the compounds listed are not included; inactive here does not mean inactive elsewhere. Activity calls are given as the source filed them.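 The calls were made as follows: active = at least 40% inhibition at 20 µM here, with at most 30% in a related deaminase screen; inactive = the rest.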",
  "data": [
    {"biological_target": "DNA dC->dU-editing enzyme APOBEC-3A (Homo sapiens) (UniProt P31941)", "assay": "blockers of A3A cytidine deamination on DNA – biochemical, FAM/TAMRA oligo cleavage fluorescence, selectivity assay for APOBEC3G inhibitor project, primary screen (AID 493011);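 also: plate controls were A3A with DMSO for no effect and wells lacking A3A enzyme for full effect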", "conditions": "recombinant A3A, FAM/TAMRA ssDNA deamination fluorescence; at 20 µM; hits give high values", "values": [
      {"molecule": "CCN1CCCC(OC(=O)C2(O)c3ccccc3C=Cc3ccccc32)C1", "note": "(centres undefined)", "inhibition": "inactive: 1.74%"},
      {"molecule": "Cc1cc(C(=O)NCC2(N3CCCCC3)CCCCC2)ccc1[N+](=O)[O-]", "inhibition": "inactive: 4.49%"},
      {"molecule": "O=C(NCC1(N2CCCCC2)CCCCC1)c1cccc(Br)c1", "inhibition": "inactive: -4.12%"},
      {"molecule": "COc1ccc(C(=O)NCC2(N(C)C)CCCCC2)cc1", "inhibition": "inactive: -3.89%"},
      {"molecule": "C=CCN1CCN(CCOC(=O)C(O)(c2ccccc2)c2ccccc2)CC1", "inhibition": "inactive: -1.08%"},
      {"molecule": "O=C(NCC1(N2CCCCC2)CCCCC1)c1cc(F)c(F)cc1Cl", "inhibition": "inactive: 0.623%"},
      {"molecule": "Cc1ccccc1C(=O)NCC1(N2CCCCC2)CCCCC1", "inhibition": "inactive: 5.13%"},
      {"molecule": "CN(C)c1ccc(C(=O)NCC2(N(C)C)CCCCC2)cc1", "inhibition": "inactive: 0.373%"},
      {"molecule": "CN(C)C1CCCC1OC(=O)C(O)(c1ccccc1)c1ccccc1", "note": "(centres undefined)", "inhibition": "inactive: -2.77%"},
      {"molecule": "Cc1ccc(C(=O)NCC2(N3CCCCC3)CCCCC2)cc1", "inhibition": "inactive: -4.74%"},
      {"molecule": "CC(C)N1C(=O)CC2(CCN(CCOC(=O)C(O)(c3ccccc3)c3ccccc3)CC2)C1=O", "inhibition": "inactive: -1.34%"},
      {"molecule": "CCN(CC)CC(C)C(C)OC(=O)C(O)(c1ccccc1)c1ccccc1", "note": "(centres undefined)", "inhibition": "inactive: 3.03%"},
      {"molecule": "COc1cc(SC)ccc1C(=O)NCC1(N(C)C)CCCCC1", "inhibition": "inactive: 4.02%"},
      {"molecule": "CN1[C@@H]2CC[C@H]1CC(OC(=O)C(O)(c1ccccc1)c1ccccc1)C2", "note": "(some centres undefined)", "inhibition": "inactive: 2.69%"},
      {"molecule": "O=C(NCC1(N2CCCCC2)CCCCC1)c1cc([N+](=O)[O-])ccc1Cl", "inhibition": "inactive: 2.15%"},
      {"molecule": "CN(C)c1cccc(C(=O)NCC2(N(C)C)CCCCC2)c1", "inhibition": "inactive: 0.87%"},
      {"molecule": "CC(C)Oc1ccc(C(=O)NCC2(N(C)C)CCCCC2)cc1", "inhibition": "inactive: -5.06%"},
      {"molecule": "COc1ccc(Br)c(C(=O)NCC2(N3CCCCC3)CCCCC2)c1", "inhibition": "inactive: 6.28%"},
      {"molecule": "O=C(OC1CN2CCC1CC2)C(CO)(c1ccccc1)c1ccccc1", "note": "(centres undefined)", "inhibition": "inactive: -4.02%"},
      {"molecule": "O=C(NCC1(N2CCCCC2)CCCCC1)c1cccc(Cl)c1", "inhibition": "inactive: -1.34%"},
      {"molecule": "COc1cccc(C(=O)NCC2(N3CCCCC3)CCCCC2)c1", "inhibition": "inactive: 3.07%"},
      {"molecule": "COc1ccc(Cl)cc1C(=O)NCC1(N(C)C)CCCCC1", "inhibition": "inactive: 6.23%"},
      {"molecule": "COc1cc(C(=O)NCC2(N(C)C)CCCCC2)c([N+](=O)[O-])cc1OC", "inhibition": "inactive: -3.73%"},
      {"molecule": "CN(C)C1(CNC(=O)c2ccc(Br)cc2)CCCCC1", "inhibition": "inactive: 5.69%"}
    ]}
  ]
}
